Data on one compound can be found in PubChem BioAssay AID642 (Vanderbilt High Throughput Screening Facility, 2007).

Chains of the proteins cited; added tags and fusions are not shown.
UniProt P21728, whole entry: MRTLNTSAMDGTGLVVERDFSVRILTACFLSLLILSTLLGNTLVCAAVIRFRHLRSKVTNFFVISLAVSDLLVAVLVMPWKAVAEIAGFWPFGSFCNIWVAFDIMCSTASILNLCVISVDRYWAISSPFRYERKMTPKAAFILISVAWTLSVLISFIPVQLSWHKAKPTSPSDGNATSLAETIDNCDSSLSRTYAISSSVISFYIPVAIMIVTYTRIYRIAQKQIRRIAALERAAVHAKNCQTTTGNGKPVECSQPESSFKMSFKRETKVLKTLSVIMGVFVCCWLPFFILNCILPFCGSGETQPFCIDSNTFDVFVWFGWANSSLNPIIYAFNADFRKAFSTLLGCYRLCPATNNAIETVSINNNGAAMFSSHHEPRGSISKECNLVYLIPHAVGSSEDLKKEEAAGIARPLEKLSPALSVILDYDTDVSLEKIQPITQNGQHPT

Only a part is listed here, and it is no random draw. The source made the active and inactive calls.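 Rule for the calls: active = luminescence in either of two replicates above the same-plate mean plus 3 SD of the low-dose dopamine control; inactive = the rest.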

This assay addresses D(1A) dopamine receptor (Homo sapiens) (UniProt P21728). Kind of assay: potentiation of dopamine EC30 D1 response – cell-based, HEK293 D1, CRE-luciferase, duplicate, confirmation (AID 642). The settings on record: at 10 µM, hits give high values.
`Cc1nc2ccc3ccccc3c2s1.O=[N+]([O-])c1cc([N+](=O)[O-])c(O)c([N+](=O)[O-])c1`: the luminescence is active: 7760.
